Results reported in patent US9808528B2, “Protein-polymer-drug conjugates and methods of using same” (priority 2014, dated 2017).

What was measured:
BT474 tumor fragments = experiment: Tumor growth response, BT474 xenograft; type: in vivo, mice; settings: single IV dose day 1; conjugates […] and 5 mg/kg; trastuzumab 10 mg/kg
Description: (§1) Mice were sacrificed when tumors reached a size of 800 to 1500 mm^3.

JIMT-1 cells = experiment: Tumor growth response, JIMT-1 xenograft; type: in vivo, mice; settings: single IV dose day 1; for tumor volume response (in words), FIG. 2: conjugates […], trastuzumab 10 mg/kg, Kadcyla 10 mg/kg
Description: as §1

NCI-H1581 = experiment: Cytotoxicity assay (CellTiter-Glo); type: cell-based; settings: HER2 molecules per cell 13,000; Her2 expression 1+; 72 hours or 6 days
[1] = Mouse plasma PK (Example 27, Table IX); settings: total AF-HPA by LC-MS/MS; single IV dose, CD-1 mice
[2] = SDS-PAGE of the conjugate under non-reducing and reducing conditions; type: physicochemical

Row | Substance | tumor volume response (in words), FIG. 1 (BT474 tumor fragments) | tumor volume response (in words), FIG. 4A (JIMT-1 cells; Example 14 at 2, 0.67 and 0.3 mg/kg, trastuzumab 20 mg/kg, Kadcyla 20 mg/kg) | tumor volume response (in words), FIG. 2 (JIMT-1 cells) | IC50 (NCI-H1581) [nM] | Plasma PK AUC0 to 336 [1] [ng·h/mL] | behaviour on SDS-PAGE under reducing conditions [2]
1 | Trastuzumab [reference compound] | increase of tumor volume | increase of tumor volume | increase of tumor volume |  |  | 
2 | Trastuzumab-((EG2-MI (2%)-(10 kDa PHF-BA (30%)-(AF-HPA-Ala (9%)) [Example 7] |  |  | reduction of tumor volume | 2.3 | 22900 | 
3 | Trastuzumab-((EG2-MI (3%))-(10 kDa PHF-BA (30%)-(AF-HPA-Ala (8%)) [Example 4] | reduction of tumor volume |  | reduction of tumor volume |  | 20100 | dissociated in to heavy and light chain fragments
